Data: US4464359A, “(2'-5')-Oligo (3'-deoxyadenylate) and derivatives thereof” (Research Corporation, priority 1981, dated 1984)

What was measured:
Epstein-Barr Virus (EBV) = test: EBV-induced stimulation of DNA synthesis in EBV infected human lymphocytes; type: cell-based
Protocol: Heparinized whole venous blood was obtained from the umbilical cords of newborn infants (human umbilical cord lymphocytes) or EBV-seronegative volunteers (peripheral blood lymphocytes) in collaboration with Temple University Hospital, Philadelphia, PA. Mononuclear leukocytes were prepared by the Ficoll-Hypaque method of Boyum (Scand. J. Clin. Invest. 21 (Sup. 97), 77 (1968)) and were cultured in RPMI-1640 supplemented with 20% fetal bovine serum as described (Henderson et al, Virology 76, 152 (1977)). The lymphoblastoid cell lines BJAB and RAJI were gifts of Drs. Werner and Gertrude Henle, Children's Hospital, University of Pennsylvania, Philadelphia, PA, and were cultured as described above. The lymphoblastoid line C85-5C was obtained by transformation of human umbilical cord lymphocytes following infection with EBV and maintained as described aove. Cultured mouse L cells were maintained in minimum essential medium (Eagle) supplemented with Earle's salts, L-glutamine and 6% fetal bovine serum. Interferon-treated mouse L cells were supplied by Dr. Esther H. Chang, National Cancer Institute, NIH. […] EBV stocks were maintained at -70° C. until use. Human umbilical cord lymphocytes and peripheral blood lymphocytes were infected as described (Henderson et al, Supra). […]

[1] = test system: Herpes Simplex Virus Type 1 (HSV-1); test: Infected centers assay: HSV-1 exposed leukocytes plated onto human foreskin fibroblast monolayers, cytopathic effects (cpe); type: cell-based; design: key to cpe at given number of HSV-exposed leukocytes per cell: +++: complete destruction of the monolayer; ++: multiple foci of cpe; +: one focus of cpe; 0: no monolayer disturbances
Protocol: (2'-5')- and (3'-5')A(pA)3 have been reported to be taken up by intact lymphocytes. Therefore, we employed an infected centers assay utilizing lymphocytes to determine the ability of (2'-5') oligonucleotides to inhibit HSV-1. After incubation for 72 hr with or without (2'-5')oligonucleotides, leukocytes exposed to HSV-1 were plated onto human foreskin fibroblast monolayers (Table 2).

[2] = test system: lymphoblastoid cell lines; test: Lymphoblast colony formation / cytotoxicity, cell line not given; type: cell-based
Protocol: Heparinized whole venous blood was obtained from the umbilical cords of newborn infants (human umbilical cord lymphocytes) or EBV-seronegative volunteers (peripheral blood lymphocytes) in collaboration with Temple University Hospital, Philadelphia, PA. […] The lymphoblastoid cell lines BJAB and RAJI were gifts of Drs. Werner and Gertrude Henle, Children's Hospital, University of Pennsylvania, Philadelphia, PA, and were cultured as described above. The lymphoblastoid line C85-5C was obtained by transformation of human umbilical cord lymphocytes following infection with EBV and maintained as described aove. Cultured mouse L cells were maintained in minimum essential medium (Eagle) supplemented with Earle's salts, L-glutamine and 6% fetal bovine serum. Interferon-treated mouse L cells were supplied by Dr. Esther H. Chang, National Cancer Institute, NIH. […] EBV stocks were maintained at -70° C. until use. Human umbilical cord lymphocytes and peripheral blood lymphocytes were infected as described (Henderson et al, Supra).
Therefore, the effect of these agents on colony formation in closely related lymphoblastoid cell lines was determined (Table 3).

[3] = test system: C85-5C lymphoblastoid cell line; test: Cytotoxicity by colony formation in microtiter plates, C85-5C; type: cell-based, human; conditions: treatment for 7 days
Protocol: Heparinized whole venous blood was obtained from the umbilical cords of newborn infants (human umbilical cord lymphocytes) or EBV-seronegative volunteers (peripheral blood lymphocytes) in collaboration with Temple University Hospital, Philadelphia, PA. Mononuclear leukocytes were prepared by the Ficoll-Hypaque method of Boyum (Scand. J. Clin. Invest. 21 (Sup. 97), 77 (1968)) and were cultured in RPMI-1640 supplemented with 20% fetal bovine serum as described (Henderson et al, Virology 76, 152 (1977)). The lymphoblastoid cell lines BJAB and RAJI were gifts of Drs. Werner and Gertrude Henle, Children's Hospital, University of Pennsylvania, Philadelphia, PA, and were cultured as described above. The lymphoblastoid line C85-5C was obtained by transformation of human umbilical cord lymphocytes following infection with EBV and maintained as described aove. Cultured mouse L cells were maintained in minimum essential medium (Eagle) supplemented with Earle's salts, L-glutamine and 6% fetal bovine serum. […]
IFN-α, core trimer, core tetramer, and core pentamer have been reported to inhibit DNA synthesis in concanavalin A stimulated mouse spleen lymphocytes. Therefore, the effect of these agents on colony formation in closely related lymphoblastoid cell lines was determined (Table 3). […]
*Determined by colony formation in microtiter plates following treatment […]

IFN-β: interferon β
EBV-induced stimulation of DNA synthesis (Epstein-Barr Virus (EBV)): inhibited | cpe at given number of HSV-exposed leukocytes per cell ([1]; 25 U/ml, 2 × 10^5 leukocytes): ++ | cpe at given number of HSV-exposed leukocytes per cell ([1]; 25 U/ml, 2.2 × 10^4 leukocytes): 0 | cpe at given number of HSV-exposed leukocytes per cell ([1]; 25 U/ml, 6.7 × 10^4 leukocytes): + | cpe at given number of HSV-exposed leukocytes per cell ([1]; 100 U/ml, 2 × 10^5 leukocytes): +++ | cpe at given number of HSV-exposed leukocytes per cell ([1]; 100 U/ml, 2.2 × 10^4 leukocytes): 0 | cpe at given number of HSV-exposed leukocytes per cell ([1]; 100 U/ml, 6.7 × 10^4 leukocytes): 0 | cpe at given number of HSV-exposed leukocytes per cell ([1]; 250 U/ml, 2 × 10^5 leukocytes): + | cpe at given number of HSV-exposed leukocytes per cell ([1]; 250 U/ml, 2.2 × 10^4 leukocytes): 0 | cpe at given number of HSV-exposed leukocytes per cell ([1]; 250 U/ml, 6.7 × 10^4 leukocytes): 0 | cpe at given number of HSV-exposed leukocytes per cell ([1]; 500 U/ml, 2 × 10^5 leukocytes): 0 | cpe at given number of HSV-exposed leukocytes per cell ([1]; 500 U/ml, 2.2 × 10^4 leukocytes): 0 | cpe at given number of HSV-exposed leukocytes per cell ([1]; 500 U/ml, 6.7 × 10^4 leukocytes): 0 | development of cpe from HSV-1 infected leukocytes / HSV-1 replication ([1]; 72 hr incubation, human foreskin fibroblast monolayers): significantly less cytopathic effects | cytotoxicity / effect on lymphoblast colony formation [2]: no appreciable effect | Concentration at which colony formation was inhibited by greater than 50 percent [3]: > 1000 U/ml
